Experimental data taken from US20130324503A1, “Method of identifying and treating a person having a predisposition to or afflicted with Parkinson disease” (Health Research Inc., priority 2010, published 2013).

Test system: D. melanogaster w^1118 females
Settings: in vivo

`CN1CCC[C@H]1c1cccnc1` [nicotine, 1-methyl-2-(3-pyridyl)pyrrolidone] was tested, and the “decline in median survival” value was 21%.
